Screening results (PubChem)
LMNA splice mod: changes lamin A minigene splicing in HeLa cells; 0.01% of 200,000 active; HeLa LMNA splicing GFP/RFP minigene ratio, 48 h; Potency, µM (top dose mostly 46.1 µM), inactives show at the highest dose ratio change, negative = inhibition, usual class: inhibitors; AID 1487; active means well fitted inhibition curve with a large enough effect in the signal ratio, with a control signal flat, not every such curve was filed as active; inconclusive means small, poorly fitted or top-dose-only effect, or effect the other way, or a change in a side signal; the % refers to the signal ratio; further: potency means the concentration at half of the fitted maximal effect; on the % scale 0 is the no-effect control and ±100 the full control effect
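S3 HeLa stable clones carrying a lamin A-EGFP splicing minigene plus DsRed2 were seeded at 600 cells/well in Opti-MEM with 2% FBS, pin-dosed and incubated 48 h at 37°C. Acumen cytometry (488 nm) gave the GFP/RFP total-intensity ratio.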
KDM4E inh: JMJD2E (human) inhibition | Potency, µM (series often up to 57.1 µM), without a hit: top-dose activity change, negative = inhibition, most hits filed as inhibitors | 1.6% of 230,000 active | JMJD2E catalytic domain, FDH-coupled NADH fluorescence (FDH is formaldehyde dehydrogenase);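 further: potency means the concentration at half of the fitted maximal effect; 0% = wells with enzyme and -100% = buffer wells without enzyme; nearly all actives have a fitted effect of over 50% in size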
G9a block: G9a (human) methyltransferase inhibition. Potency, µM (top dose mostly 102 µM), inactives show top-dose activity, negative = inhibition, actives largely listed as inhibitors. G9a H3K9 monomethylation, AlphaScreen, 2 h. 8.8% of 350,000 active; further: potency means the concentration at half of the fitted maximal effect; on the % scale 0 is the no-effect control and ±100 the full control effect; nearly all actives have a fitted effect of over 75% in size
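Using a bead-based AlphaScreen, monomethylated H3K9 product from 2 h room-temperature reactions (G9a 20 nM, peptide 500 nM, SAM 20 uM) was detected with 0.5 ug/mL rabbit anti-H3K9me1 antibody.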
Sfp PPTase inh: inhibitors of Bacillus subtilis Sfp phosphopantetheinyl transferase; Q9F4F7; Biochemical Sfp PPTase activity, qHTS; Potency, µM, inactives show max response, negative = inhibition, usual class: inhibitors; 310,000 tested, 3.5% active; active = well fitted inhibition curve with a large enough effect; inconclusive = small, poorly fitted or top-dose-only effect, or another doubt; inactive = no such curve, though single readings can be large or run the other way;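 note: the enzyme is Sfp with the accession as filed and its product quenches rhodamine fluorescence; potency is the fitted concentration of half-maximal effect; 0% = enzyme reaction without inhibitor and -100% = no enzyme wells; top concentration of the series not given in the record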
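Step 1, compound plus 15 nM Sfp-PPTase, 15 min, room temperature. Step 2, add rhodamine-CoA (5 uM) and BHQ-2-YbbR (12.5 uM). Step 3, read 525/598 nm fluorescence at 0 and 30 min.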
miR-21 FLuc: miR-21 reporter, rising signal. HeLa miR-21 FLuc reporter, luciferase, 48 h. Potency, µM (highest dose often 38.3 µM), for the others: at the highest dose reporter change, positive = more light. 340,000 tested, under 10 active. AID 2288; active = well fitted rising curve with a large enough effect; inconclusive = small, poorly fitted or top-dose-only effect; inactive = no such curve, though single readings can be large or run the other way;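 further: % of control where 0% means no effect; miR-21 action dims this reporter so a rising signal means less miR-21 action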
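Using DMEM plus 10% FBS, HeLa miR-21-FLuc cells are incubated with test compounds (final up to about 40uM) for 48 hours; firefly luciferase signal is then imaged following reagent-mediated lysis.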
ALDH1A1 block: inhibitors of human aldehyde dehydrogenase 1A1 | Potency, µM (top dose mostly 75.3 µM), inactives show at the highest dose activity, negative = inhibition, usual class: inhibitors | P00352 | AID 1030 | 7.3% of 220,000 active | Purified ALDH1A1, NADH fluorescence, propionaldehyde substrate; active means well fitted inhibition curve with a large enough effect, not every such curve was filed as active; inconclusive means small, poorly fitted or top-dose-only effect, or another doubt; inactive means no such curve, though single readings can be large or run the other way;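 further: potency means the concentration at half of the fitted maximal effect; plate controls were no enzyme wells and a reference inhibitor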
* = called active by the depositor; ! = a repeat was not active; [ ] = remark or other dose. Hits are enriched below; roughly 13% of the tested compounds scored in any of these assays. Unless noted, the call rests on the fitted dose curve; in most records, active means well fitted curve in the direction sought with a large enough effect; inconclusive means small, poorly fitted or top-dose-only effect, or another doubt; inactive means no such curve, though single readings can be large; an effect the other way counts as inactive or inconclusive.

COc1cccc(C2NC(=O)c3sc(=S)n(-c4ccccc4)c3N2)c1 (stereo not drawn) was read as LMNA splice mod -13%, KDM4E inh 7%, G9a block 40µM*, Sfp PPTase inh -17%, miR-21 FLuc 6% and ALDH1A1 block -8%.
Screening COc1ccc(OC)c(C2NC(=O)c3sc(=S)n(-c4ccccc4)c3N2)c1 (stereo not drawn) returned LMNA splice mod -1%, KDM4E inh -6%, G9a block 4µM*, Sfp PPTase inh inconclusive, miR-21 FLuc 1% and ALDH1A1 block inconclusive.
Screening COc1ccc(-n2c(=S)[nH]c3sc(-c4ccccc4)cc3c2=O)c(OC)c1 returned KDM4E inh -2%, G9a block -3%, Sfp PPTase inh 12% and miR-21 FLuc 0%.
Screening N/C(=N\NC(=O)Nc1ccc(Cl)cc1)c1ccccn1 returned LMNA splice mod 8%[46 µM], KDM4E inh 18%, G9a block -28%, Sfp PPTase inh -20%, miR-21 FLuc -68% and ALDH1A1 block 6%.
`C/C(=N/NC(=O)c1ccccn1)c1ccncc1` gave G9a block 2.8µM*, Sfp PPTase inh 56µM* and miR-21 FLuc -51%.
`C/C(Cc1ccccc1)=N\NC(=O)c1ccccn1` gave Sfp PPTase inh 50µM* and miR-21 FLuc -55%.
Screening C/C(Cc1ccccc1)=N\NC(=O)c1cccnc1 returned LMNA splice mod -7%, KDM4E inh 75%, G9a block -9%[59 µM], Sfp PPTase inh 2%, miR-21 FLuc -12% and ALDH1A1 block -2%.
`CNC(=O)N/N=C(\N)c1ccccn1` gave LMNA splice mod inconclusive, KDM4E inh 10%, G9a block 10µM*, Sfp PPTase inh -25%, miR-21 FLuc -24% and ALDH1A1 block 9%.
C/C(Cc1ccccc1)=N\NC(=O)CCCCCC(=O)N/N=C(\C)Cc1ccccc1 was read as LMNA splice mod 1%, KDM4E inh 36%, G9a block 3%, Sfp PPTase inh -11%, miR-21 FLuc -3% and ALDH1A1 block 11µM*.
`COc1ccccc1CCNC(=O)C(C)Sc1nc(-c2ccccc2)cc(C(F)(F)F)n1` (stereo not drawn) gave G9a block 7%[59 µM] and miR-21 FLuc 0%.
`Cc1nc2sc(C(=O)NCc3ccc(Cl)cc3)c(NC(=O)c3ccccc3)c2c(C)c1C` gave G9a block -9%[59 µM] and miR-21 FLuc -1%.
For O=C(COC(=O)Cn1[nH]c(=O)c2ccccc2c1=O)NNC(=O)c1ccccc1 the results were G9a block -9%[12.7 µM].
Screening O=c1cc(-c2ccc(F)cc2F)[nH]c2ccc(F)cc12 returned G9a block inconclusive, Sfp PPTase inh -4% and ALDH1A1 block -9%[120 µM].
For COc1cccc(NC(=O)C2CCN(S(=O)(=O)c3c(C)noc3/C=C/c3cccs3)CC2)c1 the results were G9a block -26%[59 µM] and miR-21 FLuc 25%.
Screening O=C(O)[C@H]1CCCN1 returned G9a block 40%[59 µM], Sfp PPTase inh 45µM*! and ALDH1A1 block 9%.
`CCC(=O)N1c2ccccc2-c2nnc(SC)nc2OC1c1ccc(N(C)C)cc1` (stereo not drawn) gave LMNA splice mod -7%, KDM4E inh 2%, G9a block inconclusive, Sfp PPTase inh -4%, miR-21 FLuc -3% and ALDH1A1 block 16µM*.
`CCCC(=O)N1c2ccccc2-c2nnc(SC)nc2OC1c1sccc1C` (stereo not drawn) gave G9a block inconclusive and miR-21 FLuc 0%.
Screening CCOC(=O)CC(NC(=O)c1cc2cccc(OC)c2oc1=O)c1ccc(OC)cc1 (stereo not drawn) returned G9a block -10%, Sfp PPTase inh 6% and miR-21 FLuc -75%.
For COc1ccccc1-c1nc2ccccc2nc1-c1ccccc1OC the results were LMNA splice mod -7%, KDM4E inh -11%, G9a block 7%[59 µM], Sfp PPTase inh 15%, miR-21 FLuc -4% and ALDH1A1 block inconclusive.
Screening COc1ccc2nc3ccccc3nc2c1N returned KDM4E inh inconclusive, G9a block 1µM*, Sfp PPTase inh 4.5µM* and miR-21 FLuc -1%.

No new results follow: an excerpt of the list.
`Cc1nc2sc(C(=O)NCc3ccc(Cl)cc3)c(NC(=O)c3ccccc3)c2c(C)c1C` gave G9a block -9%[59 µM] and miR-21 FLuc -1%.
For O=C(COC(=O)Cn1[nH]c(=O)c2ccccc2c1=O)NNC(=O)c1ccccc1 the results were G9a block -9%[12.7 µM].
Screening O=c1cc(-c2ccc(F)cc2F)[nH]c2ccc(F)cc12 returned G9a block inconclusive, Sfp PPTase inh -4% and ALDH1A1 block -9%[120 µM].
For COc1cccc(NC(=O)C2CCN(S(=O)(=O)c3c(C)noc3/C=C/c3cccs3)CC2)c1 the results were G9a block -26%[59 µM] and miR-21 FLuc 25%.

(listing goes on)
COc1ccc2nc3cccc(OC)c3nc2c1 was read as LMNA splice mod -3%[46 µM], KDM4E inh -24%, G9a block 22µM*, Sfp PPTase inh -85%, miR-21 FLuc -18% and ALDH1A1 block inconclusive.
`COCCCNC(=O)c1ccc(Cn2c(=O)c3ccccc3n(CC(N)=O)c2=O)cc1` gave G9a block 6%[59 µM] and miR-21 FLuc 6%.
COc1ccc(C(=O)O)cc1NS(=O)(=O)c1cccc2nsnc12 was read as LMNA splice mod 7%, KDM4E inh -11%, G9a block 4µM*, Sfp PPTase inh -9%, miR-21 FLuc -1% and ALDH1A1 block 1%.
Screening COc1ccc(OC)c(CNC(=O)C2CCN(c3nc4ccccc4nc3C(F)(F)F)CC2)c1 returned G9a block 5%[59 µM] and miR-21 FLuc -2%.
`CC(=O)C(=Cc1ccc(C(=O)O)cc1)C(C)=O` gave LMNA splice mod -4%[46 µM], KDM4E inh -17%, G9a block 56µM*, Sfp PPTase inh -2%, miR-21 FLuc -1% and ALDH1A1 block inconclusive.
C/C(=C\c1ccc(C(=O)O)cc1)c1ccc2c(c1)C(C)(C)CCC2(C)C was read as LMNA splice mod inconclusive, KDM4E inh inconclusive, G9a block 16µM*!, Sfp PPTase inh 40% and ALDH1A1 block -5%.
`Cc1ccc(NC(=O)C(=Cc2ccc(C(=O)O)cc2)C(=O)Nc2ccc(C)cc2C)c(C)c1` gave KDM4E inh 4%, G9a block 7%[12.7 µM], Sfp PPTase inh -5% and miR-21 FLuc inconclusive.
`Cc1cccc(C(=O)N(CC(=O)Nc2sc(C)c(C)c2C(N)=O)C2CCCC2)c1` gave G9a block -10%[59 µM], Sfp PPTase inh 5% and miR-21 FLuc 14%.
Screening COc1ccc(N2C(=S)NC3N2C(=S)NC3(C)c2ccccc2)cc1 (stereo not drawn) returned KDM4E inh inconclusive, G9a block 28µM*, Sfp PPTase inh inconclusive, miR-21 FLuc -43% and ALDH1A1 block 25µM*.
For CC1(c2ccccc2)NC(=S)N2C1NC(=S)N2c1ccccc1 (stereo not drawn) the results were LMNA splice mod 15%, KDM4E inh -5%, G9a block 50µM*, Sfp PPTase inh -15%, miR-21 FLuc -8% and ALDH1A1 block 32µM*.
